Consider 14 compounds from publication PMC7265552 (Scientific Reports, 2020).

Chains of the proteins cited; added tags and fusions are not shown. Residues count along the entry.
UniProt Q9R117, 894-1166 limits assumed: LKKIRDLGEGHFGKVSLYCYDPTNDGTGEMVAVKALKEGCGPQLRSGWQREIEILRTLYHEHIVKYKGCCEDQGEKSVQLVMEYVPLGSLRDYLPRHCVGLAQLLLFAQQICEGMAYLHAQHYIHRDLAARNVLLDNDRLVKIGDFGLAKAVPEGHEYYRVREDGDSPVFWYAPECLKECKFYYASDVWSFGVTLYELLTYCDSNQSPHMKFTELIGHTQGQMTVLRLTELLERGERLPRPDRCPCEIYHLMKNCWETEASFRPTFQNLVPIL
UniProt P29597, 897-1176 limits assumed: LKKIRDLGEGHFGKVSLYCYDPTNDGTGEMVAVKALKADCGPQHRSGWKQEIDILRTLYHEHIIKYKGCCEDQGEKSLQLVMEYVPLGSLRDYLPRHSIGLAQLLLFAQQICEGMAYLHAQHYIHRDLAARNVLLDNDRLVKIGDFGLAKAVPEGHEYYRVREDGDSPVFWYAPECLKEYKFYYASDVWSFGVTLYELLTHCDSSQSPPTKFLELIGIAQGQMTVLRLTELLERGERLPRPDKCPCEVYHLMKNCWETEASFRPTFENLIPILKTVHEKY

For one assay, the target named is mouse WT TYK2 (Mus musculus, UniProt Q9R117). Nature of the assay: JAK Caliper enzyme end-point IC50 assay, mouse WT TYK2. The format is biochemical. To be noted: read-out: Mouse WT TYK2 IC50; ATP 1 mM; geometric mean ± SD.
The target in a further assay is human WT TYK2 (Homo sapiens, UniProt P29597). Nature of the assay: JAK Caliper enzyme end-point IC50 assay, human WT TYK2. To be noted: read-out: Human WT TYK2 IC50; ATP 1 mM; geometric mean ± SD. The format is biochemical.

For the compound `CNC(=O)c1ncc(Nc2nccc(N3CC4CCC(C3)N4C(=O)[C@@H]3CC3(F)F)n2)cc1C`, the IC50 at mouse WT TYK2 came out at 495 nM; on human WT TYK2 it was 20 nM.

Turning to `CCNC(=O)c1ccc(Nc2nccc(N3CC4CC(C3)N4C(=O)C(C)(F)F)n2)cc1`, the 50% inhibitory concentration (IC50) on mouse WT TYK2 worked out at 1160 nM; on human WT TYK2, 66 nM.

As for `Cn1cc(Nc2nccc(N3CC4CCC(C3)N4C(=O)C3CC3)n2)cn1`, the half-maximal inhibitory concentration (IC50) at mouse WT TYK2 is 1070 nM.

On to `Cn1cc(Nc2nccc(N3CC4CCC(C3)N4C(=O)NCCC#N)n2)cn1`, for which the IC50 at mouse WT TYK2 is 935 nM; at human WT TYK2 it was 60 nM.

Consider `C[C@@H]1[C@@H]2CN(c3nc(Nc4cnn(CCO)c4)ncc3F)C[C@]12NC(=O)[C@@H]1C[C@H]1C#N`, for which the IC50 at mouse WT TYK2 was found to be 1620 nM.

For the compound `C[C@@H]1[C@@H]2CN(c3nc(Nc4cn[nH]c4)ncc3F)C[C@]12NC(=O)[C@@H]1CC1(F)F`, the IC50 turned out to be 1570 nM at mouse WT TYK2 and 33 nM on human WT TYK2.

Take `CNC(=O)c1ncc(Nc2nccc(N3CC4CCC(C3)N4C(=O)[C@@H]3CC3(F)F)n2)cc1F`: the IC50 at mouse WT TYK2 worked out at 459 nM; on human WT TYK2 it was 27 nM.

Take `Cc1cc(Nc2ncc(F)c(N3C[C@H]4[C@@H](C)[C@@]4(NC(=O)[C@@H]4C[C@H]4C#N)C3)n2)cnc1CCO`: the IC50 at mouse WT TYK2 was 1260 nM; on human WT TYK2 it was 41 nM.

`Cn1cc(Nc2nccc(N3CC4CCC(C3)N4C3CC(C#N)C3)n2)cn1` (stereo not shown): the IC50 at mouse WT TYK2 was 781 nM; at human WT TYK2 it was 47 nM.

Consider `O=C(N[C@@]12C[C@@H]1CN(c1nc(Nc3cnn(CCO)c3)ncc1Cl)C2)C1CC1`, for which, at mouse WT TYK2, the IC50 came to 474 nM.

On to `Cn1cc(Nc2nccc(N3CC4CCC(C3)N4C(=O)NCC(F)(F)F)n2)cn1`, for which, on mouse WT TYK2, the IC50 was determined as 551 nM.

With `CCNC(=O)c1ncc(Nc2ncc(F)c(N3CC4CCC(C3)N4C(=O)C3CC3)n2)cc1C`, the figures for the IC50 on mouse WT TYK2 and on human WT TYK2 were 2390 nM and 57 nM, respectively.

`CCNC(=O)N1C2CCC1CN(c1ccnc(Nc3cnn(C)c3)n1)C2`: on mouse WT TYK2, the IC50 was 972 nM.

On to `C[C@@H]1[C@@H]2CN(c3nc(Nc4cnn(C)c4)ncc3F)C[C@]12NC(=O)[C@@H]1C[C@H]1C#N`, for which the IC50 on mouse WT TYK2 came to 1340 nM.

The IC50 is the concentration needed to halve the response being measured.
